The numbers were not newly measured in patent publication US8741962B2, “Process for preparation of Rasagiline and salts thereof” (USV Limited, priority 2009, dated 2014), which cites them from elsewhere.

Amino acid sequences for entries named in this document (tags omitted).
UniProt P27338, whole entry, species assumed: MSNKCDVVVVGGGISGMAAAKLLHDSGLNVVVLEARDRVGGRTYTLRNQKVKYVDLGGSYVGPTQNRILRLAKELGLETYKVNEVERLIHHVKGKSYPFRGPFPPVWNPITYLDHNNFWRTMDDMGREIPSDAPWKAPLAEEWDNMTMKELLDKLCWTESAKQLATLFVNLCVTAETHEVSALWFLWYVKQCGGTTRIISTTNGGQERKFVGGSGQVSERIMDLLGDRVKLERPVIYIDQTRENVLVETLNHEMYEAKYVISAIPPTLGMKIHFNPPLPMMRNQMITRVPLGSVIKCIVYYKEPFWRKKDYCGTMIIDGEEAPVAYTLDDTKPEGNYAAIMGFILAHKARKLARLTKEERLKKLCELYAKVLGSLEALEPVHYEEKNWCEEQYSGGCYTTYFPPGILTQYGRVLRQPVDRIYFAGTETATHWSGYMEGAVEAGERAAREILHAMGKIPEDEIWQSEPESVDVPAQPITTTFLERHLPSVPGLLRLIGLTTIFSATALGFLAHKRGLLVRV

In this series the target is MAO-B (Homo sapiens, UniProt P27338). Conditions: cited from earlier work.

In the case of `C#CCN[C@@H]1CCc2ccccc21.CS(=O)(=O)O` [R(+)-Rasagiline mesylate, (1R)-2,3-dihydro-N-2-propynyl-1H-indane-1-amine mesylate], the “MAO inhibition activity in vitro” value is “highly potent and MAO-B-selective inhibition activity”.

As to `C#CCN[C@@H]1CCc2ccccc21.Cl` [R-(+)-Rasagiline hydrochloride, (1R)-2,3-dihydro-N-2-propynyl-1H-indane-1-amine hydrochloride], the “MAO inhibition activity in vitro” value is “highly potent and MAO-B-selective inhibition activity”.
